Data: patent USRE30413E, “Bleomycinic acid and process for preparing thereof” (Zaidan Hojin Biseibutsu Kagaku Kenkyu Kai, priority 1971, dated 1980)
Read-outs that look alike come from different tables or passages of the source.

System: ICR-JCL male mice
Conditions: for Total, degree of fibrosis ++: number of mice with grade ++, fourth Total column; for Total, degree of fibrosis -: number of mice with grade -, first Total column

benzylamino-bleomycin
toxicity (compared with bleomycin B2, lung fibrosis in mice, 10 mg./kg. i.v. over 10 days): lower
Total, degree of fibrosis ++ (lung L): 0
Total, degree of fibrosis - (lung L): 8
Total, degree of fibrosis ± (lung L, number of mice with grade ±, second Total column): 1
Total, degree of fibrosis ± (lung L, number of mice, third Total column (head prints ± again)): 1
Total, degree of fibrosis ++ (lung R): 0
Total, degree of fibrosis - (lung R): 7
Total, degree of fibrosis ± (lung R, number of mice with grade ±, second Total column): 3
Total, degree of fibrosis ± (lung R, number of mice, third Total column (head prints ± again)): 0
